Assay results taken from the Human Domainome abundance scans (Beltran et al. 2025).

B1: X-ray repair cross-complementing protein 6, residues 558 to 609; numbered along this chain, P12956 (parent)
chain: EYSEEELKTHISKGTLGKFTVPMLKEACRAYGLKSGLKKQELLEALTKHFQD

Variants of: B1
Experiment: abundance fitness (aPCA) (normalised: wild type 0, dead -1); higher = more abundant; growth selection in yeast, the domain comes from the species named
Conditions: Homo sapiens

First: EYSCEELKTHISKGTLGKFTVPMLKEACRAYGLKSGLKKQELLEALTKHFQD
Second: EYSDEELKTHISKGTLGKFTVPMLKEACRAYGLKSGLKKQELLEALTKHFQD
The abundance fitness of the first is higher: -0.158 ± 0.058 for the first, -0.356 ± 0.076 for the second.

Compared with EYSFEELKTHISKGTLGKFTVPMLKEACRAYGLKSGLKKQELLEALTKHFQD, EYSGEELKTHISKGTLGKFTVPMLKEACRAYGLKSGLKKQELLEALTKHFQD is lower in abundance fitness: -0.109 ± 0.057 for the first, -0.397 ± 0.039 for the second.

Compared with EYSHEELKTHISKGTLGKFTVPMLKEACRAYGLKSGLKKQELLEALTKHFQD, EYSIEELKTHISKGTLGKFTVPMLKEACRAYGLKSGLKKQELLEALTKHFQD is higher in abundance fitness: -0.302 ± 0.059 for the first, -0.045 ± 0.072 for the second.

EYSKEELKTHISKGTLGKFTVPMLKEACRAYGLKSGLKKQELLEALTKHFQD and EYSLEELKTHISKGTLGKFTVPMLKEACRAYGLKSGLKKQELLEALTKHFQD are within error of each other in abundance fitness: -0.181 ± 0.043 for the first, -0.246 ± 0.037 for the second.

Compared with EYSMEELKTHISKGTLGKFTVPMLKEACRAYGLKSGLKKQELLEALTKHFQD, EYSNEELKTHISKGTLGKFTVPMLKEACRAYGLKSGLKKQELLEALTKHFQD is lower in abundance fitness: -0.168 ± 0.052 for the first, -0.417 ± 0.088 for the second.

Compared with EYSPEELKTHISKGTLGKFTVPMLKEACRAYGLKSGLKKQELLEALTKHFQD, EYSQEELKTHISKGTLGKFTVPMLKEACRAYGLKSGLKKQELLEALTKHFQD is lower in abundance fitness: -0.168 ± 0.04 for the first, -0.285 ± 0.054 for the second.

EYSREELKTHISKGTLGKFTVPMLKEACRAYGLKSGLKKQELLEALTKHFQD and EYSSEELKTHISKGTLGKFTVPMLKEACRAYGLKSGLKKQELLEALTKHFQD are within error of each other in abundance fitness: -0.298 ± 0.04 for the first, -0.231 ± 0.041 for the second.

EYSTEELKTHISKGTLGKFTVPMLKEACRAYGLKSGLKKQELLEALTKHFQD and EYSVEELKTHISKGTLGKFTVPMLKEACRAYGLKSGLKKQELLEALTKHFQD are within error of each other in abundance fitness: -0.096 ± 0.054 for the first, -0.162 ± 0.048 for the second.

Going from EYSWEELKTHISKGTLGKFTVPMLKEACRAYGLKSGLKKQELLEALTKHFQD to EYSYEELKTHISKGTLGKFTVPMLKEACRAYGLKSGLKKQELLEALTKHFQD, the abundance fitness rises from -0.377 ± 0.039 to -0.208 ± 0.06.

First: EYSEAELKTHISKGTLGKFTVPMLKEACRAYGLKSGLKKQELLEALTKHFQD
Second: EYSECELKTHISKGTLGKFTVPMLKEACRAYGLKSGLKKQELLEALTKHFQD
The abundance fitness of the first is higher: -0.062 ± 0.035 for the first, -0.315 ± 0.037 for the second.

EYSEDELKTHISKGTLGKFTVPMLKEACRAYGLKSGLKKQELLEALTKHFQD and EYSEFELKTHISKGTLGKFTVPMLKEACRAYGLKSGLKKQELLEALTKHFQD are within error of each other in abundance fitness: -0.088 ± 0.041 for the first, -0.15 ± 0.04 for the second.

EYSEGELKTHISKGTLGKFTVPMLKEACRAYGLKSGLKKQELLEALTKHFQD and EYSEHELKTHISKGTLGKFTVPMLKEACRAYGLKSGLKKQELLEALTKHFQD are within error of each other in abundance fitness: -0.194 ± 0.039 for the first, -0.189 ± 0.036 for the second.

EYSEIELKTHISKGTLGKFTVPMLKEACRAYGLKSGLKKQELLEALTKHFQD and EYSEKELKTHISKGTLGKFTVPMLKEACRAYGLKSGLKKQELLEALTKHFQD are within error of each other in abundance fitness: -0.111 ± 0.035 for the first, -0.137 ± 0.037 for the second.

EYSELELKTHISKGTLGKFTVPMLKEACRAYGLKSGLKKQELLEALTKHFQD and EYSEMELKTHISKGTLGKFTVPMLKEACRAYGLKSGLKKQELLEALTKHFQD are within error of each other in abundance fitness: -0.161 ± 0.031 for the first, -0.167 ± 0.036 for the second.

First: EYSENELKTHISKGTLGKFTVPMLKEACRAYGLKSGLKKQELLEALTKHFQD
Second: EYSEPELKTHISKGTLGKFTVPMLKEACRAYGLKSGLKKQELLEALTKHFQD
The abundance fitness of the first is higher: -0.217 ± 0.033 for the first, -0.355 ± 0.032 for the second.

EYSEQELKTHISKGTLGKFTVPMLKEACRAYGLKSGLKKQELLEALTKHFQD and EYSERELKTHISKGTLGKFTVPMLKEACRAYGLKSGLKKQELLEALTKHFQD are within error of each other in abundance fitness: -0.175 ± 0.036 for the first, -0.168 ± 0.034 for the second.

EYSESELKTHISKGTLGKFTVPMLKEACRAYGLKSGLKKQELLEALTKHFQD and EYSETELKTHISKGTLGKFTVPMLKEACRAYGLKSGLKKQELLEALTKHFQD are within error of each other in abundance fitness: -0.048 ± 0.03 for the first, -0.082 ± 0.032 for the second.

Going from EYSEVELKTHISKGTLGKFTVPMLKEACRAYGLKSGLKKQELLEALTKHFQD to EYSEWELKTHISKGTLGKFTVPMLKEACRAYGLKSGLKKQELLEALTKHFQD, the abundance fitness falls from -0.162 ± 0.035 to -0.271 ± 0.036.

First: EYSEYELKTHISKGTLGKFTVPMLKEACRAYGLKSGLKKQELLEALTKHFQD
Second: EYSEEALKTHISKGTLGKFTVPMLKEACRAYGLKSGLKKQELLEALTKHFQD
The abundance fitness of the first is lower: -0.134 ± 0.034 for the first, 0.049 ± 0.039 for the second.

Compared with EYSEECLKTHISKGTLGKFTVPMLKEACRAYGLKSGLKKQELLEALTKHFQD, EYSEEDLKTHISKGTLGKFTVPMLKEACRAYGLKSGLKKQELLEALTKHFQD is higher in abundance fitness: -0.128 ± 0.034 for the first, -0.017 ± 0.038 for the second.

Going from EYSEEFLKTHISKGTLGKFTVPMLKEACRAYGLKSGLKKQELLEALTKHFQD to EYSEEGLKTHISKGTLGKFTVPMLKEACRAYGLKSGLKKQELLEALTKHFQD, the abundance fitness falls from -0.025 ± 0.034 to -0.166 ± 0.034.

First: EYSEEHLKTHISKGTLGKFTVPMLKEACRAYGLKSGLKKQELLEALTKHFQD
Second: EYSEEILKTHISKGTLGKFTVPMLKEACRAYGLKSGLKKQELLEALTKHFQD
The abundance fitness of the first is lower: -0.072 ± 0.032 for the first, 0.028 ± 0.032 for the second.

Compared with EYSEEKLKTHISKGTLGKFTVPMLKEACRAYGLKSGLKKQELLEALTKHFQD, EYSEELLKTHISKGTLGKFTVPMLKEACRAYGLKSGLKKQELLEALTKHFQD is lower in abundance fitness: 0.069 ± 0.042 for the first, -0.053 ± 0.032 for the second.

Compared with EYSEENLKTHISKGTLGKFTVPMLKEACRAYGLKSGLKKQELLEALTKHFQD, EYSEEPLKTHISKGTLGKFTVPMLKEACRAYGLKSGLKKQELLEALTKHFQD is lower in abundance fitness: 0.07 ± 0.038 for the first, -0.678 ± 0.039 for the second.

Going from EYSEEQLKTHISKGTLGKFTVPMLKEACRAYGLKSGLKKQELLEALTKHFQD to EYSEERLKTHISKGTLGKFTVPMLKEACRAYGLKSGLKKQELLEALTKHFQD, the abundance fitness rises from -0.085 ± 0.037 to -0.002 ± 0.033.

± gives the uncertainty stated by the source.
